Measured values from US11667602B2, “Compounds and their use” (AstraZeneca AB, priority 2020, dated 2023).

biological target: T1, human RXFP1 (Homo sapiens, UniProt Q9HBX9); assay: RXFP1 Hu cAMP (Test A); type: cell-based; parameters: expressed in transfected cells; host or cells: Jump-In T-REx CHO-K1 cells (ThermoFisher), induced with 10 ng/ml doxycycline for 24 h
T1 sequence (Q9HBX9 1-757): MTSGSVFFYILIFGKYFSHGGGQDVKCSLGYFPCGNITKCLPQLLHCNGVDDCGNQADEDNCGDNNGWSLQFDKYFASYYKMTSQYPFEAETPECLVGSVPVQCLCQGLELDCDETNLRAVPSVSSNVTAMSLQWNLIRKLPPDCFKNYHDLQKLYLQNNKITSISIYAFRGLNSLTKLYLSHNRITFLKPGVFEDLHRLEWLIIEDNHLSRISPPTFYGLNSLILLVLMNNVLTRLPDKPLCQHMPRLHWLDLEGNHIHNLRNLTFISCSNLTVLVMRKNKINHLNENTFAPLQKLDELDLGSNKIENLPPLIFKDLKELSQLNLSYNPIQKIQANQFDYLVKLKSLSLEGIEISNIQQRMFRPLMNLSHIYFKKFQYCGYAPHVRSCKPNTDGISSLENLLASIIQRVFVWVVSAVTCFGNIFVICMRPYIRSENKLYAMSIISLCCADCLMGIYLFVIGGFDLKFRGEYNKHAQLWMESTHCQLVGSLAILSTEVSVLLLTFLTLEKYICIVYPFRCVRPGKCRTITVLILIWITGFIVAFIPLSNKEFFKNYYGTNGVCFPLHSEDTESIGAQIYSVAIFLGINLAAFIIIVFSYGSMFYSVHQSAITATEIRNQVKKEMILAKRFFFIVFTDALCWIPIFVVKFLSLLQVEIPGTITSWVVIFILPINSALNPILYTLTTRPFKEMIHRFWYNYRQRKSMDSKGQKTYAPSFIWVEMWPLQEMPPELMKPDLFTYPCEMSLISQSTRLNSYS

Substance	EC50 [nM]
(1R,4s)-4-(2-Fluoro-4-methoxy-5-(((1S*,2S*,3R*,4R*)-3-((3-((trifluoromethyl)sulfonyl)phenyl)carbamoyl)bicyclo[2.2.1]heptan-2-yl)carbamoyl)phenoxy)-1-methylcyclohexane-1-carboxylic acid [Example 587]	2200
(1R,4s)-4-(2-Fluoro-4-methoxy-5-(((1S*,2S*,3R*,4R*)-3-(((1-methylcyclobutyl)methyl)carbamoyl)-7-oxabicyclo[2.2.1]heptan-2-yl)carbamoyl)phenoxy)-1-methylcyclohexane-1-carboxylic acid [Example 531]	> 40000
(1R,4s)-4-(2-Fluoro-4-methoxy-5-(((3S*,4R*)-4-(((1-methylcyclobutyl)methyl)carbamoyl)tetrahydrofuran-3-yl)carbamoyl)phenoxy)-1-(hydroxymethyl)cyclohexane-1-carboxylic acid [Example 581]	3200
(1R,4s)-4-(2-Fluoro-4-methoxy-5-(((3S*,4R*)-4-(((1-methylcyclobutyl)methyl)carbamoyl)tetrahydrofuran-3-yl)carbamoyl)phenoxy)-1-methylcyclohexane-1-carboxylic acid [Example 577]	> 40000
(1R,4s)-4-(2-Fluoro-4-methoxy-5-(((3S*,4R*)-4-(neopentylcarbamoyl)tetrahydrofuran-3-yl)carbamoyl)phenoxy)-1-(hydroxymethyl)cyclohexane-1-carboxylic acid [Example 579]	13000
(1R,4s)-4-(2-Fluoro-4-methoxy-5-(((3S*,4R*)-4-(neopentylcarbamoyl)tetrahydrofuran-3-yl)carbamoyl)phenoxy)-1-methylcyclohexane-1-carboxylic acid [Example 567]	10000
(1R,4s)-4-(2-Fluoro-5-(((1S*,2R*)-2-((4-fluoro-3-(pentafluoro-λ6-sulfaneyl)phenyl)carbamoyl)cyclobutyl)carbamoyl)-4-methoxyphenoxy)-1-methylcyclohexane-1-carboxylic acid [Example 571]	2.5
(1R,4s)-4-(2-Fluoro-5-(((1S*,2S*,5S*)-2-hydroxy-5-((3-((trifluoromethyl)sulfonyl)phenyl)carbamoyl)cyclopentyl)carbamoyl)-4-methoxyphenoxy)-1-methylcyclohexane-1-carboxylic acid [Example 529]	500
(1R,4s)-4-(2-Fluoro-5-(((3S*,4R*)-4-((4-fluoro-3-(pentafluoro-λ6-sulfaneyl)phenyl)carbamoyl)tetrahydrofuran-3-yl)carbamoyl)-4-methoxyphenoxy)-1-methylcyclohexane-1-carboxylic acid [Example 565]	23
(1R,4s)-4-(2-Fluoro-5-(((3S*,4S*)-4-((4-fluoro-3-(pentafluoro-λ6-sulfaneyl)phenyl)carbamoyl)tetrahydro-2H-pyran-3-yl)carbamoyl)-4-methoxyphenoxy)-1-methylcyclohexane-1-carboxylic acid [Example 575]	290
(1R,4s)-4-(2-fluoro-4-methoxy-5-(((1S*,2R*)-2-((3-((trifluoromethyl)sulfonyl)phenyl)carbamoyl)cycloheptyl)carbamoyl)phenoxy)-1-methylcyclohexane-1-carboxylic acid [Example 517]	> 40000
(1R,4s)-4-(2-fluoro-4-methoxy-5-(((1S*,2R*,4R*)-4-methoxy-2-((3-((trifluoromethyl)sulfonyl)phenyl)carbamoyl)cyclopentyl)carbamoyl)phenoxy)-1-methylcyclohexane-1-carboxylic acid [Example 525]	> 40000
(1R,4s)-4-(2-fluoro-4-methoxy-5-(((1S*,2S*,5S*)-2-methoxy-5-((3-((trifluoromethyl)sulfonyl)phenyl)carbamoyl)cyclopentyl)carbamoyl)phenoxy)-1-methylcyclohexane-1-carboxylic acid [Example 527]	80
(1R,4s)-4-(2-fluoro-4-methoxy-5-(((3S*,4S*)-3-((3-((trifluoromethyl)sulfonyl)phenyl)carbamoyl)tetrahydro-2H-pyran-4-yl)carbamoyl)phenoxy)-1-methylcyclohexane-1-carboxylic acid [Example 519]	> 17000
(1R,4s)-4-(2-fluoro-4-methoxy-5-(((3aR*,4S*,5S*,6aS*)-5-((3-((trifluoromethyl)sulfonyl)phenyl)carbamoyl)tetrahydro-4H-cyclopenta[d][1,3]dioxol-4-yl)carbamoyl)phenoxy)-1-methylcyclohexane-1-carboxylic acid [Example 513]	> 40000
(1R,4s)-4-(2-fluoro-5-(((1S*,2S*,3R*,4R*)-3-((4-fluoro-3-(pentafluoro-λ6-sulfaneyl)phenyl)carbamoyl)bicyclo[2.2.1]heptan-2-yl)carbamoyl)-4-methoxyphenoxy)-1-methylcyclohexane-1-carboxylic acid [Example 521]	710
(1R,4s)-4-(5-(((1S*,2R*,3S*,5S*)-2,3-Dihydroxy-5-((3-((trifluoromethyl)sulfonyl)phenyl)carbamoyl)cyclopentyl)carbamoyl)-2-fluoro-4-methoxyphenoxy)-1-methylcyclohexane-1-carboxylic acid [Example 563]	> 40000
(1R,4s)-4-(5-(((3R*,4S*)-1-acetyl-3-((3-((trifluoromethyl)sulfonyl)phenyl)carbamoyl)piperidin-4-yl)carbamoyl)-2-fluoro-4-methoxyphenoxy)-1-methylcyclohexane-1-carboxylic acid [Example 515]	> 40000
